From ChEMBL document CHEMBL4715797, “Structure-Activity Relationships of [des-Arg]Dynorphin A Analogues at the κ Opioid Receptor” (J Med Chem, 2016)

Protein sequences, listed by entry. Tags and fused reporters are not part of them.
UniProt P35372, whole entry: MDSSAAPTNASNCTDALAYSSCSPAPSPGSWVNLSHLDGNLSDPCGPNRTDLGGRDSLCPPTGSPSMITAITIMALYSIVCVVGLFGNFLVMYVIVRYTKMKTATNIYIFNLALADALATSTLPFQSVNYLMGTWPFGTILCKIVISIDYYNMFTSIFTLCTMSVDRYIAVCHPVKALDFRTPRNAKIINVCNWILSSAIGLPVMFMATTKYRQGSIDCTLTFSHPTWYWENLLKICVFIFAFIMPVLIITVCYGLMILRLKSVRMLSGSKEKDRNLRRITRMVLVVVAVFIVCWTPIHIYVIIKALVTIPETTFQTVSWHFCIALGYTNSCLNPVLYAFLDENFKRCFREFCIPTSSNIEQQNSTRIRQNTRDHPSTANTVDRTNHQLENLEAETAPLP

Target: Mu-type opioid receptor (Homo sapiens, UniProt P35372)
Assay: Displacement of [3H]diprenorphine from human MOR expressed in mouse NG108-15 cell membranes incubated for 2 hrs by liquid scintillation counting based radioligand competition assay

Structure (SMILES): CC[C@H](C)[C@H](NC(=O)[C@H](CCCNC(=N)N)NC(=O)[C@H](CCCNC(=N)N)NC(=O)[C@H](CC(C)C)NC(=O)[C@H](Cc1ccccc1)NC(=O)CNC(=O)CNC(=O)[C@@H](N)Cc1ccc(O)cc1)C(=O)N[C@@H](CCCNC(=N)N)C(=O)N1CCC[C@H]1C(=O)N[C@@H](CCCCN)C(=O)N[C@@H](CC(C)C)C(=O)N[C@@H](CCCCN)C(=O)O [ANALOG OF DYNORPHIN A]
- Ki: 8 nM
